Tests used:
[1] = test system: Human NCI-N87 gastric carcinoma; assay: NCI-N87 xenograft tumour growth delay study; assay type: in vivo, SCID mice; conditions: for median TTE: vehicle 44.9 days, 83-day study
Procedure: Human NCI-N87 gastric carcinoma lymphoma cells were cultured in RPMI-1640 medium supplemented with 10% fetal bovine serum, 2 mM glutamine, 100 units/mL penicillin, 100 µg/mL streptomycin sulfate and 25 µg/mL gentamicin. The cells were grown in tissue culture flasks in a humidified incubator at 37° C., in an atmosphere of 5% CO2 and 95% air.
The NCI-N87 cells used for implantation were harvested during log phase growth and resuspended in phosphate buffered saline (PBS) containing 50% Matrigel™ (BD Biosciences). On the day of tumor implant, each test mouse (SCID mice as in Example 6) was injected subcutaneously in the right flank with 1×10^7 cells (0.1 mL cell suspension), and tumor growth was monitored as the average size approached the target range of 100 to 150 mm^3. Eleven days later, designated as Day 1 of the study, mice were sorted according to calculated tumor size into eleven groups each consisting of ten animals with individual tumor volumes ranging from 88 to 144 mm^3 and group mean tumor volumes of 119-121 mm3. Tumors were measured in two dimensions using calipers, and volume was calculated using the formula:
Tumour Volume (mm^3)=0.5(w^2×l)
(§1) Treatment began on Day 1 in groups of mice (n=10) with established subcutaneous NCI-N87 tumors (88-144 mm^3). […] A vehicle-treated group served as the control group for efficacy analysis. Tumors were measured twice per week until the study was ended on Day 81. Each mouse was euthanized when its tumor reached the endpoint volume of 800 mm^3 or on the final day, whichever came first. The time to endpoint (TTE) was calculated for each mouse.
(§2) Treatment outcome was determined from percent tumor growth delay (% TGD), defined as the percent increase in median TTE for treated versus control mice, with differences between groups deemed statistically significant at P s 0.05 using logrank survival analysis. Mice were monitored for complete regression (CR) and partial regression (PR) responses.
Treatment tolerability was assessed by body weight measurements and frequent observation for signs of treatment-related side effects. Treatment tolerability was assessed by body weight measurements and frequent observation for signs of treatment-related side effects. All regimens were acceptably tolerated.
as §1, with “(75-126” for “(88-144”, “83.” for “81.”
as §2, with “responses. Treatment tolerability was assessed by body weight measurements and frequent observation for signs of treatment-related side effects. Treatment tolerability was assessed by body weight measurements and frequent observation for signs of treatment-related side effects. All regimens were acceptably tolerated.” for “responses.”

[2] = test system: BT474 human breast carcinomas; assay: BT474 xenograft tumour growth delay study; assay type: in vivo, SCID mice
Description: Female severe combined immune-deficient mice (Fox Chase SCID®, C.B-17/Icr-Prkdcscid, Charles River) were ten weeks old with a body weight (BW) range of 16.2 to 21.9 grams on Day 1 of the study. The animals were fed adlibitum water (reverse osmosis, 1 ppm Cl), and NIH 31 Modified and Irradiated Lab Diet® consisting of 18.0% crude protein, 5.0% crude fat, and 5.0% crude fibre. The mice were housed on irradiated Enricho'cobs™ Laboratory Animal Bedding in static micro-isolators on a 12-hour light cycle at 20-22° C. (68-72° F.) and 40-60% humidity. CR Discovery Services specifically complies with the recommendations of the Guide for Care and Use of Laboratory Animals with respect to restraint, husbandry, surgical procedures, feed and fluid regulation, and veterinary care. The animal care and use program at CR Discovery Services is accredited by the Association for Assessment and Accreditation of Laboratory Animal Care International (AAALAC), which assures compliance with accepted standards for the care and use of laboratory animals.
Xenografts were initiated with BT474 human breast carcinomas maintained at CR Discovery Services by serial subcutaneous transplantation into the SCID mice (see above). On the day of tumour implant, each test mouse received a 1-mm^3 BT474 fragment implanted subcutaneously in the right flank, and tumour growth was monitored as the average size approached the target range of 100 to 150 mm^3. […] Tumours were measured in two dimensions using calipers, and volume was calculated using the formula: […]
Treatment began on Day 1 in groups of mice (n=10) with established subcutaneous BT474 tumors (75-196 mm^3). […] Tumors were measured twice per week until the study was ended on Day 60. […] The time to endpoint (TTE) was calculated for each mouse.
Treatment outcome was determined from percent tumor growth delay (% TGD), defined as the percent increase in median TTE for treated versus control mice, with differences between groups deemed statistically significant at P s 0.05 using logrank survival analysis. […]

[3] = test system: SKBR3; assay: In vitro ADC cytotoxicity, MTS cell viability assay; assay type: cell-based; conditions: ADC exposure 4 days
Procedure: Medium from sub-confluent (80-90% confluency) cell culture in a T75 flask was aspirated and the flask rinsed with PBS (about 20 ml) and emptied. Trypsin-EDTA (5 ml) was added, the flask returned to the 37° C. gassed incubator for up to about 5 minutes, then rapped sharply to dislodge and dissociate cells from the plastic. The cell suspension was transferred to a sterile 50 ml screw-top centrifuge tube, diluted with growth medium to a final volume of 15 ml, then centrifuged (400 g for 5 min). The supernatant was aspirated and the pellet re-suspended in 10 ml culture medium. Repeated pipetting may be necessary to produce monodisperse cell suspensions. The cell concentration and viability are measured of trypan blue cell stained cells, using a haemocytometer. Cells were diluted to 2×10^5/ml, dispensed (50 μl/well) into 96 well flat bottom plates and incubated overnight before use. […]
At the end of the incubation period, cell viability was measured by MTS assay. […] Well absorbance was measured at 490 nm. Percentage cell survival was calculated from the mean absorbance in the 4 ADC-treated wells compared to the mean absorbance in the 4 control untreated wells (100%). IC50 was determined from the doses-response data using GraphPad Prism using the non-linear curve fit algorithm: sigmoidal, 4PL X is log(concentration).

[4] = Rat single dose toxicity study (MTD) / therapeutic index; assay type: in vivo, Male Sprague Dawley rats; conditions: single iv dose, 7 mg/kg
[5] = Cynomolgus macaque single-dose toxicity study; assay type: in vivo, Cynomolgus macaques monkeys (Macaca fascicularis); conditions: cyno
[6] = Treatment 1: 1 mg/kg iv qd×1, n=10

Substance | TGD ([1]; Treatment 1: 0.3 mg/kg iv qd×1) [days] | TGD (percent) ([1]; Treatment 1: 0.3 mg/kg iv qd×1) [%] | median TTE (time to endpoint) ([1]; Treatment 1: 0.3 mg/kg iv qd×1, endpoint 800 mm^3, vehicle 53.4 days) [days] | partial regressions (PR) [1, 6] | survival benefit versus vehicle-treated controls (logrank) ([1]; Treatment 1: 1 mg/kg iv qd×1, P<0.001) | tumor growth delay (TGD) ([1]; Treatment 1: 1 mg/kg iv qd×1, maximum possible TGD 27.6 days (52%), 81-day study) | partial regressions (PRs) [2, 6] | IC50 in SKBR3 [3] [µg/mL] | adverse findings at the high dose [4] | major findings at the highest tested dose ([5]; single iv dose 6 mg/kg) | mortality ([5]; single iv dose 1, 3, 4.5 or 6 mg/kg) | toxicity at next lowest dose ([5]; single iv dose […]) | TGD ([1]; Treatment 2: 0.3 mg/kg iv qd×1) [days] | TGD (percent) ([1]; Treatment 2: 0.3 mg/kg iv qd×1) [%] | median TTE ([1]; Treatment 2: 0.3 mg/kg iv qd×1) [days] | TGD ([1]; Treatment 2: 1 mg/kg iv qd×1) [days] | TGD (percent) ([1]; Treatment 2: 1 mg/kg iv qd×1) [%] | median TTE ([1]; Treatment 2: 1 mg/kg iv qd×1) [days] | partial regressions (PRs) ([2]; Treatment 2: 1 mg/kg iv qd×1, n=9 or 10) | complete regression (CR) ([2]; Treatment 2: 1 mg/kg iv qd×1, remained a tumour-free survivor (TFS) at study end)
Trastuzumab-23: trastuzumab conjugated to drug linker Compound 23 (SG3400); DAR 1.71 | 27.1 | 51 | 80.5 | one | statistically significantly different | maximum possible TGD | four | 0.022 | minimal adverse findings | body weight loss and bone marrow suppression | no unscheduled mortality | minimal signs of toxicity |  |  |  |  |  |  |  | 
Trastuzumab-40 |  |  |  |  |  |  |  | 0.019 |  |  |  |  | 9.3 | 21 | 54.2 | 16.7 | 37 | 61.6 | four | one

From patent US20230143309A1, “PYRROLOBENZODIAZEPINE ANTIBODY CONJUGATES” (priority 2016, published 2023)
